Laboratory results from paper PMC11489056, “Molecular mechanism of a triazole-containing inhibitor of Mycobacterium tuberculosis DNA gyrase” (iScience, 2024).

Sequences of proteins named here, by UniProt entry; tags and fusion partners are left off.
UniProt P0AES4, whole entry: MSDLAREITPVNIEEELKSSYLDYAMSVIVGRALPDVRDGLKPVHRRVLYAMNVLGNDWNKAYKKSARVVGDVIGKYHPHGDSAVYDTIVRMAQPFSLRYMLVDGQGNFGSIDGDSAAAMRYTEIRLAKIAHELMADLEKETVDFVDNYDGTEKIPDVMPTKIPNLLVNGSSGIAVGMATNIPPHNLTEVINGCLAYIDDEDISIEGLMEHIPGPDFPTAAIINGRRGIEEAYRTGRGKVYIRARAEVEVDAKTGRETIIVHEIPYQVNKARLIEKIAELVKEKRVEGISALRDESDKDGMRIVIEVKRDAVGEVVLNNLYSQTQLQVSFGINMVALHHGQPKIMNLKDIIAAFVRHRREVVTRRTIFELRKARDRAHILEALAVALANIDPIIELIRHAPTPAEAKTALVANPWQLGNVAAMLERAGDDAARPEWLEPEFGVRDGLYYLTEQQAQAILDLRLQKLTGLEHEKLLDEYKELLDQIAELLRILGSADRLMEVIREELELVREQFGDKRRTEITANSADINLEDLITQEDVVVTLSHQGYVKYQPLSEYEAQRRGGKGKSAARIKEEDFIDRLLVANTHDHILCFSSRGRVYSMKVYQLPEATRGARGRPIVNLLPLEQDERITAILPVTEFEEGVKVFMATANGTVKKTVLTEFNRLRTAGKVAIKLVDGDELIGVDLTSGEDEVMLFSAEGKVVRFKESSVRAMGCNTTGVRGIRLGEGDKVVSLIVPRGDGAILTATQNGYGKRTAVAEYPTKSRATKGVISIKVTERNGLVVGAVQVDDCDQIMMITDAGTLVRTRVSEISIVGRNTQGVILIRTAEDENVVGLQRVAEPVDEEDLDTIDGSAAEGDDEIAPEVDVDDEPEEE

Target: wild-type E. coli DNA gyrase (Escherichia coli, UniProt P0AES4+P0AES6)
Assay type: biochemical
Details: 60 min

## COc1ccc2nccc(-n3cc(CCNCc4ccc5c(c4)NC(=O)CS5)nn3)c2n1 [BDM71403 (10a)]
  IC50 for E. coli wild-type gyrase lower than that for the Mtb gyrase: 25 fold
